The values that follow come from patent US20110053923A1, “CHEMICAL COMPOUNDS 610” (AstraZeneca, priority 2008, published 2011).

The structures appear in SMILES notation.

The test addresses mTOR (Homo sapiens, UniProt P42345). In words: Enzyme - mTOR Kinase Assay (Echo).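 Also: enzyme expressed in HEK293 cells, 2 h incubation at room temperature, read-out is phosphorylation of a biotinylated peptide substrate detected with an anti-phospho p70 S6 Kinase (T389) antibody, inhibition lowers signal.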 The test is classed as biochemical.

By IC50 is commonly meant the midpoint of a concentration-inhibition curve. High values mean weaker potency in that assay, low ones greater potency in that assay. `COc1cc(-c2nc(N3CCOCC3)cc(C3(S(C)(=O)=O)CC3)n2)c2cc[nH]c2c1` [Example 1.04, 6-Methoxy-4-{4-[1-(methylsulfonyl)cyclopropyl]-6-morpholin-4-ylpyrimidin-2-yl}-1H-indole] came in with an IC50 of 55.2 nM.
